For test [1], the system named is Primary rat oligodendrocyte progenitor cells. In words: Oligodendrocyte toxicity assay, progenitor cells (OLP), SIN-1, LDH release. Format: cell-based. Conditions: compound 10 nm, 1 hour pretreatment; Sin-1 10 mM; LDH after 24 hours; oligodendrocyte progenitors. Here is the method:
(§1) Primary rat oligodendrocyte progenitor cells were obtained from the cerebra of 2-3 day old postnatal rats (Sprague Dawley). The meninges were removed and tissue was mechanically dissociated. Cells were plated on T75 flasks and fed with DMEM+10% FBS.
(§2) Enriched OLPs were collected by mechanical separation from the astrocytic monolayer and were expanded in serum free media (SFM) supplemented with the mitogens, PDGF-AA (10 ng/ml) and FGF-2 (10 ng/ml).
(§3) Cells were plated in 96-well plates, 10,000 per well. Medium was changed to fresh medium and cells were pretreated with compounds for 1 hour. Toxins were added to give the following final concentrations: • Sin-1 10 mM • Pyrogallol 500 μM • C2 ceramide 100 μM • Camptothecin 10 μM
(§4) Results were calculated as percent protection against toxin-induced toxicity.

The next test relates to mature oligodendrocytes. Description: Oligodendrocyte toxicity assay, mature oligodendrocytes (OL), SIN-1, LDH release. Type of test: cell-based, rat. The settings on record: compound 10 nm, 1 hour pretreatment, Sin-1 10 mM, LDH after 24 hours. Here is the method: as §1, §2
To generate mature oligodendrocytes, progenitor cells were switched to SFM supplemented with IGF-1 (10 ng/ml) 24 hours after plating and cells were grown under these conditions for 7 days prior to experimental assays.
as §3, §4

Take `O=C(c1ccc(OCCN2CCCCC2)cc1)c1c2n(c3cc(O)ccc13)CCc1cc(O)ccc1-2` [5,6-dihydro-3,9-dihydroxyindolo[2,1-a]isoquinolin-12-yl)[4-[2-(1-piperidinyl)ethoxy]phenyl]-methanone]: the “% Protection (SIN-1*) OLP 10 nm” value in test [1] is on record as 6.049%. Further, the “% Protection (SIN-1*) OL 10 nm” value in the test on mature oligodendrocytes is recorded as above 30%.

Values taken from patent publication US20080033005A1, “METHODS FOR THE TREATMENT OF MULTIPLE SCLEROSIS” (AVENTIS PHARMACEUTICALS INC., priority 2004, published 2008).
